Experimental data: patent publication US20160169918A1, “Methods of Diagnosis and Treatment for Pulmonary Arterial Hypertension” (THE REGENTS OF THE UNIVERSITY OF CALIFORNIA, priority 2013, published 2016)

Amino acid sequences for entries named in this document (tags omitted). Residues count along the entry.
UniProt P32241, 31-457: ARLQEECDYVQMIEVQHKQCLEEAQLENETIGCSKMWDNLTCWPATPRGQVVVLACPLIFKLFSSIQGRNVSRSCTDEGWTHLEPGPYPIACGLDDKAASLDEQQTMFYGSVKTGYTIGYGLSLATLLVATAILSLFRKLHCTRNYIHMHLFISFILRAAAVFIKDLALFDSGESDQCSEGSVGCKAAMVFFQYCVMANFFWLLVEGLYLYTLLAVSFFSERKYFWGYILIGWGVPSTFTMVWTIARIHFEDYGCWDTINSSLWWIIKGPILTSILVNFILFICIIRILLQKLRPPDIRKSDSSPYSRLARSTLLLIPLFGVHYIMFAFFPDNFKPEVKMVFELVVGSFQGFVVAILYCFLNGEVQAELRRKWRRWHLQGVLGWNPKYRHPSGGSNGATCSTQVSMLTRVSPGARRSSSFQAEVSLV

Molecular target: T1, vasoactive intestinal peptide receptor (VIPR1) (Homo sapiens, UniProt P32241)
T1 construct: It was confirmed that VIPR1 is expressed on the membrane of PASMCs; endogenous in cells; host or cells: Ctrl-PASMCs (primary human pulmonary artery smooth muscle cells)
Experiment: cAMP accumulation in response to receptor agonist (cAMP radioimmunoassay) in Ctrl-PASMCs
Assay type: cell-based

- cAMP levels, concentration dependence (FIG. 4C): dose-dependently increases cAMP
- cAMP accumulation (agonist 1 μM, 10 min treatment): 0.2 fmol cAMP/cell/10 min
Substance: Vasoactive Intestinal Peptide [VIP]
